We go through 61 molecules from PubChem BioAssay AID463190 (Sanford-Burnham Center for Chemical Genomics, 2010).

Only a part is listed here, and it is no random draw. Activity calls are given as the source filed them.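 How the source made its calls: active means inhibition of at least 40%; inactive means the rest.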

The nature of this test: growth inhibition of tim10-1 ts yeast – luminescence, uHTS, primary screen (AID 463190).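 Further: mutant grown at 25 °C; 0% = DMSO wells with yeast and 100% = wells holding no yeast.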 The settings on record: S. cerevisiae tim10-1 ts strain growth, BacTiter-Glo, 24 h; at 20 µM; hits give high values.
Turning to `COc1ccccc1OP(C)(=O)Nc1ccc(Br)cc1` (stereo unspecified), the inhibition was inactive: -7.96%.

Regarding `CP(=O)(OCCOc1ccccc1)OCCOc1ccccc1`, the inhibition is inactive: 20.5%.

As to `CP(=O)(Nc1ccc(Cl)cc1Cl)Oc1ccccc1` (stereo unspecified), the inhibition is inactive: 27.3%.

Consider `Cc1nc2ccc3ccccc3c2o1.O=[N+]([O-])c1cc([N+](=O)[O-])c(O)c([N+](=O)[O-])c1`, for which the inhibition is inactive: 34%.

For the molecule `COc1ccc(OP(C)(=O)Nc2ccccc2Br)cc1` (stereo unspecified), the inhibition is inactive: -4.3%.

For the molecule `COc1ccccc1OP(C)(=O)Nc1ccc(C)c(C)c1` (stereo unspecified), the inhibition is inactive: -1.74%.

For `Cc1cc(C)cc(OP(C)(=O)Nc2cccc(C(F)(F)F)c2)c1` (stereo unspecified), the inhibition is inactive: 24.6%.

As to `CP(=O)(OC12CC3CC(CC(C3)C1)C2)OC12CC3CC(CC(C3)C1)C2`, the inhibition is active: 45.6%.

Turning to `CCOC(=O)c1ccc(NP(C)(=O)Oc2ccc(Cl)cc2)cc1` (stereo unspecified), the inhibition was inactive: 11.4%.

As for `Nc1ccc2c(ccc3cccnc32)n1.O=[N+]([O-])c1cc([N+](=O)[O-])c(O)c([N+](=O)[O-])c1`, the inhibition was inactive: -10.9%.

With `CN(C)C(=O)c1c([N+](=O)[O-])cc([N+](=O)[O-])cc1[N+](=O)[O-]`, the inhibition was inactive: 19.7%.

In the case of `CP(=O)(Nc1ccc(Cl)cc1)Oc1ccc(F)cc1` (stereo unspecified), the inhibition was inactive: 25.5%.

As to `CC(C)(C)c1ccc(OP(C)(=O)O)cc1`, the inhibition is inactive: -4.53%.

In the case of `COc1ccccc1OP(C)(=O)Nc1ccccc1Br` (stereo unspecified), the inhibition was inactive: 18.9%.

In the case of `CP(=O)(Oc1ccccc1)N1CCOC1=O` (stereo unspecified), the inhibition is inactive: 0.628%.

On to `CCc1ccc(OP(C)(=O)Nc2cccnc2)cc1` (stereo unspecified), for which the inhibition was inactive: 9.43%.

`COc1ccccc1OP(C)(=O)Nc1c(C)n(C)n(-c2ccccc2)c1=O` (stereo unspecified): the inhibition was inactive: 5.82%.

Turning to `O=C(OCCCN1CCCC1)C(O)(c1ccccc1)C1CCCCC1` (stereo unspecified), the inhibition is inactive: 1.01%.

Consider `CCN(CC)CC(O)COC(=O)C(O)(c1ccccc1)C1CCCCC1` (stereo unspecified), for which the inhibition was inactive: -6.99%.

Regarding `COc1ccc(OP(C)(=O)Nc2ccc(Br)cc2)cc1` (stereo unspecified), the inhibition was inactive: 15.4%.

Turning to `CP(=O)(Nc1ccccn1)Oc1ccc(Cl)cc1` (stereo unspecified), the inhibition is inactive: -14.7%.

`CCOP(C)(=S)SCC(=O)NC(C)C(=O)O` (stereo unspecified): the inhibition is inactive: 6.57%.

For `O=[N+]([O-])c1cc([N+](=O)[O-])c(O)c([N+](=O)[O-])c1.c1ccc(Oc2ccncc2)cc1`, the inhibition was inactive: 3.32%.

In the case of `CCOC(=O)c1ccc(NP(C)(=O)Oc2ccc(OC)cc2)cc1` (stereo unspecified), the inhibition was inactive: 13.1%.

On to `CCc1ccc(OP(C)(=O)N2CCN(c3ccc([N+](=O)[O-])cc3)CC2)cc1` (stereo unspecified), for which the inhibition was inactive: 30.1%.

For the molecule `CP(=O)(NC(=O)Nc1ccccc1)Oc1ccccc1` (stereo unspecified), the inhibition was inactive: -3.13%.

`Cc1cc(C)cc(OP(C)(=O)Nc2ccc(SC(F)(F)F)cc2)c1` (stereo unspecified): the inhibition was inactive: 23.6%.

Regarding `CP(=O)(Nc1ccc(SC(F)(F)F)cc1)Oc1ccc(Cl)cc1` (stereo unspecified), the inhibition was inactive: -5.75%.

In the case of `Cc1cccc(C)c1OP(C)(=O)Nc1ccc(SC(F)(F)F)cc1` (stereo unspecified), the inhibition is inactive: 28.5%.

`CP(=O)(Oc1ccccc1)OC(c1ccccc1)C(F)(F)F` (stereo unspecified): the inhibition is inactive: 0.534%.

As to `COc1ccccc1OP(C)(=O)Nc1ccccc1` (stereo unspecified), the inhibition was inactive: 5.24%.

In the case of `CP(=O)(Nc1ccccc1Br)Oc1ccccc1` (stereo unspecified), the inhibition was inactive: -7.31%.

`CP(=S)(Nn1cnnc1)Oc1ccccc1` (stereo unspecified): the inhibition was inactive: -10.6%.

`COc1ccccc1OP(C)(=O)Nc1cc(Cl)ccc1C` (stereo unspecified): the inhibition was inactive: 9.91%.

On to `COc1ccc(OP(C)(=O)Nc2cccc(F)c2)cc1` (stereo unspecified), for which the inhibition is inactive: 6.68%.

Regarding `Cc1cc(C)cc(OP(C)(N)=O)c1` (stereo unspecified), the inhibition was inactive: -8.83%.

Regarding `CCOC(=O)c1ccc(NP(C)(=O)Oc2ccccc2)cc1` (stereo unspecified), the inhibition is inactive: 5.88%.

For `COc1ccccc1OP(C)(=O)Nc1ccc(C)cc1` (stereo unspecified), the inhibition was inactive: 10.6%.

For the molecule `Cc1ccc(NP(C)(=O)Oc2ccccc2)c(C)c1` (stereo unspecified), the inhibition is inactive: 13.4%.

`CC(C)(C)c1ccc(OP(C)(=O)Nc2ccc(SC(F)(F)F)cc2)cc1` (stereo unspecified): the inhibition was active: 45.6%.

As to `Cc1cccc(C)c1OP(C)(N)=O` (stereo unspecified), the inhibition is inactive: -3%.

In the case of `O=[N+]([O-])c1cc([N+](=O)[O-])c(Nc2cccnc2)c([N+](=O)[O-])c1`, the inhibition is active: 55.8%.

`CCN(CC)CCCOC(=O)C(O)(c1ccccc1)c1ccccc1`: the inhibition is inactive: 5.55%.

Regarding `CP(=O)(Nc1cccc(Br)c1)Oc1ccccc1` (stereo unspecified), the inhibition was inactive: 3%.

Take `Cc1cc(C)cc(OP(C)(=O)Nc2ccccn2)c1` (stereo unspecified): the inhibition was inactive: 16.4%.

In the case of `Cc1ccc(C)c(NP(C)(=O)Oc2ccccc2)c1` (stereo unspecified), the inhibition is inactive: 10.5%.

With `Cc1cc(C)cc(OP(C)(=O)Nc2ccc(C)cc2C)c1` (stereo unspecified), the inhibition is inactive: 6.86%.

Regarding `CCOC(=O)c1ccc(NP(C)(=O)Oc2cc(C)cc(C)c2)cc1` (stereo unspecified), the inhibition is inactive: 25.7%.

On to `COc1ccccc1OP(C)(=O)Nc1cccc(Br)c1` (stereo unspecified), for which the inhibition is inactive: 6.92%.

On to `CC1=NCCc2c1[nH]c1ccccc21.O=[N+]([O-])c1cc([N+](=O)[O-])c(O)c([N+](=O)[O-])c1`, for which the inhibition is inactive: 11.6%.

In the case of `O=C(O)c1cccc(Nc2c([N+](=O)[O-])cc([N+](=O)[O-])cc2[N+](=O)[O-])c1`, the inhibition was inactive: -2.21%.

Regarding `CP(=O)(Nc1ccc(SC(F)(F)F)cc1)Oc1ccccc1` (stereo unspecified), the inhibition is inactive: 10.5%.

As to `CCCOc1ccc(NP(C)(=O)Oc2ccc(Cl)cc2)cc1` (stereo unspecified), the inhibition was inactive: 38.3%.

With `CN1CCCCC1COC(=O)C1(O)c2ccccc2CCc2ccccc21` (stereo unspecified), the inhibition is inactive: 11.2%.

Take `COc1ccccc1OP(C)(=O)Nc1c(C)cccc1C` (stereo unspecified): the inhibition was inactive: 15%.

Consider `O=[N+]([O-])c1cc([N+](=O)[O-])c(Nc2nnnn2CCO)c([N+](=O)[O-])c1`, for which the inhibition was inactive: -10.7%.

Consider `CC1=C2N=C(C=C3N=C(C(C)=C4[N-][C@@](C)([C@@H]5N=C1[C@](C)(CCC(=O)NC[C@@H](C)OP(=O)([O-])O[C@H]1[C@@H](O)[C@@H](n6cnc7cc(C)c(C)cc76)O[C@@H]1CO)[C@H]5CC(N)=O)[C@@](C)(CC(N)=O)[C@@H]4CCC(N)=O)[C@@](C)(CC(N)=O)[C@@H]3CCC(N)=O)C(C)(C)[C@@H]2CCC(N)=O.[C-]#N.[Co+3]`, for which the inhibition was inactive: 8.9%.

In the case of `CCOC(=O)C(CC)C1=NC(C)(C)Cc2ccccc21.O=[N+]([O-])c1cc([N+](=O)[O-])c(O)c([N+](=O)[O-])c1` (stereo unspecified), the inhibition was inactive: 20.9%.

On to `Cc1nc2ccc3ccccc3c2s1.O=[N+]([O-])c1cc([N+](=O)[O-])c(O)c([N+](=O)[O-])c1`, for which the inhibition is inactive: 12.3%.

For `O=[N+]([O-])c1cc([N+](=O)[O-])c(-c2cnn(-c3ccccc3)c2)c([N+](=O)[O-])c1`, the inhibition is inactive: -6.7%.

For `O=[N+]([O-])c1cc([N+](=O)[O-])c(-n2nnc3ccccc32)c([N+](=O)[O-])c1`, the inhibition was inactive: 16%.

What is called inhibition is the change of the read-out against control, counted positive when it falls.
